Apparent affinities of Ab-14 variants for a coronavirus HR2 peptide

From the AlphaSeq antibody data of Engelhart et al. 2022 (doi:10.1038/s41597-022-01779-4), copy in the FLAb collection.

Target: peptide PDVDLGDISGINAS, taken from heptad repeat 2 (HR2) of SARS-CoV-2 spike.

Parent scFv Ab-14: VH joined to VL by a 15-residue (Gly4Ser)3 linker. Changes lie in the light chain CDRs alone.
VH: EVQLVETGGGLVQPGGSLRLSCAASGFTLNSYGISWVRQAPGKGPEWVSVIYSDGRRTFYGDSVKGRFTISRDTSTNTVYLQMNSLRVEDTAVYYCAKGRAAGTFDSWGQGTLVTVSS
VL: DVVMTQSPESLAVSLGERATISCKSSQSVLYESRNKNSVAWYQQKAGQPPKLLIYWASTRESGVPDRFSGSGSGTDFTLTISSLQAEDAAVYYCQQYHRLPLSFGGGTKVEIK

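The starting antibody came from a phage panning campaign against this peptide. The library (AAYL50) carries one to three amino acid substitutions per variant, with no insertions or deletions. In AlphaSeq, yeast of one mating type display the scFv and yeast of the other type display the target. After mating in shaken culture at 30 °C for 16 h, diploids were selected and their barcode pairs sequenced. The ratio of observed to expected reads was calibrated, replicate by replicate, on BCL2-family standards whose Kd was known from biolayer interferometry. Mating was done three times.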

Changes read parent residue, position, new residue, counted from the first residue of the VL shown.
Values are log10 of the apparent Kd in nM; lower means stronger binding.
Replicates are averaged; those with no signal do not enter the mean.
"not detected" means that the variant was in the library but no mating with the target was seen in any replicate; the authors take this as a sign of poor binding, and no number exists.
Entries are sorted by rising average, undetected variants last.
Nonspecific signal, from three strains lacking the peptide, appeared in 18% of pairings of library AAYL50, centred on 4.19 (5% of these signals below 2.99); values are not corrected for it.
In this assay the parent's reference entry averaged 0.65; its copy inside this library read 1.68.

log10 Kd (nM), mean | seen in | changes
0.41 | 3/3 | S25C K36G S62H
0.51 | 3/3 | S25Y S26A H98D
0.54 | 3/3 | S26G W56R Q95Y
0.62 | 3/3 | H98E L100Y
0.71 | 3/3 | Q27W V29S N35Y
0.72 | 3/3 | K24R Y31A R99T
0.80 | 3/3 | S25F S38M L100S
1.07 | 3/3 | S28V V39P A57M
1.14 | 3/3 | N35D W56C S58G
1.18 | 3/3 | V29F W56G L100Y
1.28 | 3/3 | N37H E61Q S62T
1.31 | 3/3 | A57V E61V R99F
1.50 | 3/3 | R34A S38T
1.72 | 3/3 | S25R H98P S103L
1.86 | 3/3 | S58G S62L P101Y
1.90 | 3/3 | S26T S33Q Q95I
2.03 | 3/3 | K24T S33A R34C
2.13 | 3/3 | S28Y N35H L102I
2.18 | 3/3 | S28E T59Y H98I
2.27 | 3/3 | S38P T59F L102Y
2.36 | 3/3 | S26W Y97H
2.50 | 3/3 | R34K A57C R99I
2.52 | 3/3 | A40S T59W H98V
2.61 | 3/3 | S38A Y97A S103T
2.85 | 3/3 | L30F S38M L100M
2.95 | 3/3 | V29S Q96C R99I
2.99 | 1/3 | E32C S38Y L100S
3.42 | 1/3 | S28D N37D T59K
3.50 | 1/3 | Q96W P101I
3.58 | 1/3 | T59N H98E P101H
4.45 | 2/3 | V29M R60T L100R
4.52 | 2/3 | Q27W H98W L102R
4.62 | 2/3 | S25W Q27I A40G
4.85 | 2/3 | R34H R60I Q96W
5.59 | 3/3 | K24E N37G A40E
not detected | 0/3 | Y31H A40M T59A
not detected | 0/3 | R60F Y97M L102N
not detected | 0/3 | E32Y N35W T59G
not detected | 0/3 | S38M R60A L100A
not detected | 0/3 | S25K Q96M
not detected | 0/3 | N35E W56H R60C
not detected | 0/3 | V39G P101Y
not detected | 0/3 | W56G Y97D H98I
not detected | 0/3 | S28I R34T
not detected | 0/3 | N37Q V39A S58C

Extract of 4 entries:

changes	log10 Kd (nM), mean	seen in
S25F S38M L100S	0.80	3/3
V29M R60T L100R	4.45	2/3
W56G Y97D H98I	not detected	0/3
R60F Y97M L102N	not detected	0/3